This is a sample that favours compounds with a hit; in the whole collection about 0.53% have one here.
CCT chaperon mod = High-Throughput Screening for Modulators of Cytosolic Chaperonin Activity | hit rate 0.3% among 360,000 | activity change, % (no concentration beside the values), hits read low | purified chaperonin ATPase assay, HTRF ADP detection, 30 min; in the data active = activity change below about -30%
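TRiC at 40 or 20 nM final (batch-dependent) in 30 mM Tris pH 7.4, 100 mM KCl, 5 mM MgCl2, 1 mM DTT, with compound at single 76 uM and 10 uM ATP, 30 min at 37 deg C. ADP detected by HTRF Transcreener, 665/615 ratio.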
Giardia kill = Small Molecules that selectively kill Giardia lamblia: qHTS; hit rate 0.15% among 340,000; Giardia lamblia trophozoite viability; activity change, % at 7.66 µM, hits read low; in the data active = activity change below about -80%; inconclusive = between about -30% and that limit;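 note: parasites exposed to compound for two days anaerobically before the ATP read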
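Giardia trophozoites, 100 cells per well, were exposed to compounds for 48 hrs at 37 deg C under anaerobic conditions; viability was then read as ATP content by bioluminescence after 15-30 min at room temperature.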
Rango release inh = qHTS Assay for Inhibitors of RanGTP induced Rango (Ran-regulated importin-beta cargo) - Importin beta complex dissociation. Snurportin-1 (Homo sapiens) + GTP-binding nuclear protein Ran (Homo sapiens) + Importin …. Biochemical FRET Rango-importin beta, RanGTP-induced dissociation. Potency, µM (titrated, usually from 46.1 µM). hit rate 0.071% among 340,000. AID 540253, 2011; note: nearly all actives have a fitted effect of over 45% in size
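Recombinant Rango FRET biosensor (EYFP–snurportin 1 IBB–cerulean CFP10) at 0.1 uM premixed with 0.25 uM importin beta in PBS, 1 mM DTT, 0.02% Tween-20, 0.1% BSA. Compound added 5 min; RanGTP-RCC1 (0.6 uM Ran, 2 mM GTP, 0.2 uM RCC1) then triggers release, read at 45 min.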
Mm-Cpn inhibitor = Inhibitors of TCP-1 ring complex (TRiC) of Methanococcus maripaludis (MmCpn): qHTS. purified Mm-Cpn ATPase, ADP Transcreener TR-FRET. hit rate 0.031% among 330,000. Potency, µM (doses to about 76.9 µM), usual class: inhibitors; active = well fitted inhibition curve with a large enough effect; inconclusive = small, poorly fitted or top-dose-only effect; note: nearly all actives have a fitted effect of over 80% in size
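Reaction buffer contained 30 mM Tris pH 7.4, 100 mM KCl, 5 mM MgCl2 and 1 mM DTT. Mm-CPN (25 nM final) hydrolysed 10 uM ATP over 30 min at 37°C; ADP was read by HTRF.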
Rango complex inh = qHTS Assay for Inhibitors of Rango (Ran-regulated importin-beta cargo) - Importin beta complex formation; Importin subunit beta-1 (Homo sapiens), Q14974; Rango CFP/YFP FRET sensor + importin beta, 45 min; Potency, µM (top dose mostly 92.2 µM); hit rate 0.031% among 340,000; note: nearly all actives have a fitted effect of over 15% in size
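FRET biosensor (snurportin 1 IBB flanked by EYFP and cerulean), 50 nM, with compound 5 min, then 0.125 microM importin beta in PBS, 1 mM DTT, 0.02% Tween-20, 0.1% BSA. CFP/YFP ratio read after 45 min at room temperature; pre-read flags interference.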
Hits are given with their value; – = inactive; ? = inconclusive; · = no result given; [ ] = another dose, or the depositor's remark. Unless noted, calls come from the whole dose curve.

Chains of the proteins cited; added tags and fusions are not shown.
Importin subunit beta-1 (Homo sapiens), Q14974, UniProt Q14974, whole entry, looked up: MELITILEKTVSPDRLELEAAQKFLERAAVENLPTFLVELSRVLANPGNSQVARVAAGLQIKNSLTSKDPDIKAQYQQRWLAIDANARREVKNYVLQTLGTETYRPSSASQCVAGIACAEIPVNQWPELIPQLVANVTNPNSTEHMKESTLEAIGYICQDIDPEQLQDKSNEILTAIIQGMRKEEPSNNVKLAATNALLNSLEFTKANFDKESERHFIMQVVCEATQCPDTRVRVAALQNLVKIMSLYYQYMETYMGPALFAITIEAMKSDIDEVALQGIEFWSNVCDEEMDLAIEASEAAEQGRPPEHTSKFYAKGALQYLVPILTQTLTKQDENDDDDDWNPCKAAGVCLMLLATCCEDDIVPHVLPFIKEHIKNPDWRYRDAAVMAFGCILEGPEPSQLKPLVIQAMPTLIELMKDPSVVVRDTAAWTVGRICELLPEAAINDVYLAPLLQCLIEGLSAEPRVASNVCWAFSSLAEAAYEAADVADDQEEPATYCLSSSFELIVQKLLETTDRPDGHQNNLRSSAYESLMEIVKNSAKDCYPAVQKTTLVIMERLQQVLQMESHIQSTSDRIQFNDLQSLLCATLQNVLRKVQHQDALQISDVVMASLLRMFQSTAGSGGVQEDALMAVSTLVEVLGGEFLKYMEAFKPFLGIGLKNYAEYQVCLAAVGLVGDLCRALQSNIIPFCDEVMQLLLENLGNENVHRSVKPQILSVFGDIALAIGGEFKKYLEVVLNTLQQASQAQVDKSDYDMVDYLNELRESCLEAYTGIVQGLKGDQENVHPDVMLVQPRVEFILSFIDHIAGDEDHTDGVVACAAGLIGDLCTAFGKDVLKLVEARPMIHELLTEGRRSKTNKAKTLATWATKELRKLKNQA

SMILES	CCT chaperon mod	Giardia kill	Rango release inh	Mm-Cpn inhibitor	Rango complex inh
Cc1ccc(S(=O)(=O)c2ccc(Cl)cc2)cc1S(N)(=O)=O	-71	–	–	–	–
Cc1c(N2C(=O)/C(=C\c3ccc(N(C)C)cc3)N(C)C2=S)c(=O)n(-c2ccccc2)n1C	–	–	–	–	52µM
Cc1ccccc1S(=O)(=O)N1CCN(c2nc(-c3cccs3)nc3ccccc23)CC1	·	–	·	·	·
O=C(Oc1cc2oc(=O)c3c(c2cc1Cl)CCCC3)c1cccs1	–	–	8.2µM[inhibitor]	–	?
CC(=O)NCCCN(Cc1ccc(Cl)c(Cl)c1)c1ccc(Br)cn1	·	–	·	·	·
CC(C)COC(=O)N1C(COCc2ccccc2)CCC=CS1(=O)=O (configuration not stated)	·	–	·	·	·
O=C(Cc1ccccc1)NCC(=O)OCC(=O)c1ccc2ccccc2c1	·	–	·	·	·
O=C1C=C(Nc2cccc(O)c2)CC(c2ccco2)C1 (configuration not stated)	–	–	12µM	–	?
O=C1C=C(Nc2ccc(Cl)cc2)CC(c2ccco2)C1 (configuration not stated)	–	–	–	–	–
CC(=O)OCC(NC(=O)C(CCCCNC(=O)OCc1ccccc1)NC(=O)OC(C)(C)C)C1OC(n2cc(C)c(=O)[nH]c2=O)C(OC(C)=O)C1OC(C)=O (configuration not stated)	·	–	·	·	·
COc1cccc(N/C=C/C(=O)c2ccc(Cl)cc2)c1	–	–	?	–	?
COc1cccc(N/C=C/C(=O)c2ccc(C)cc2)c1	–	–	15µM	–	?
COc1ccc(OC)c(NC(=O)CCN2C(=O)c3cccc([N+](=O)[O-])c3C2=O)c1	–	–	–	–	–
COc1ccc(NC(=O)CCCCCN2C(=O)c3cccc([N+](=O)[O-])c3C2=O)c(OC)c1	-39	–	–	–	–
CCCNc1nc(Nc2ccc(C)cc2)nc(N2CCCC2)n1	–	–	–	–	46µM
Cc1ccccc1OCC(=O)NCC(=O)OC(c1ccccc1)c1ccccc1	·	–	·	·	·
CCOC(=O)CC(=O)CSc1nc2c(c(-c3cccs3)c1C#N)CCC2	–	–	21µM	–	?
CCOC(=O)CC(=O)CSc1nc2c(cc1C#N)CCC2	–	–	?	–	?
Cc1ccc(C(=O)COC(=O)c2cccc(NC(=O)c3ccc([N+](=O)[O-])cc3[N+](=O)[O-])c2)cc1	–	-101	–	–	–
CCCCCCCCCCCCCCCCn1cc[n+](C)c1	–	?	?	–	65µM
Cc1ccc(N2C(=O)CC(Sc3nccc(C)n3)C2=O)cc1 (configuration not stated)	-53	–	–	–	–
O=c1oc2ccc(Br)cc2cc1-c1nc2c(s1)CCc1ccccc1-2	·	–	·	·	·
O=c1n(Cc2ccccc2)c(O)c2n1Cc1ccccc1N=C2c1ccccc1	-40	·	·	·	·
CC(C)c1ccc(NC(=O)C2CC(=O)N(C(C)C)C2)cc1 (configuration not stated)	–	–	–	–	4.1µM
CC(C)N1CC(C(=O)Nc2ccc(C#N)cc2)CC1=O (configuration not stated)	–	–	–	–	–
SMILES	CCT chaperon mod	Giardia kill	Rango release inh	Mm-Cpn inhibitor	Rango complex inh
N#Cc1ccc(-c2csc(NC(=O)c3ccc(N4C(=O)CCC4=O)cc3)n2)cc1	–	–	?	32µM	?
O=C(c1cc2cc(F)ccc2[nH]1)N1CCc2ccccc21	–	–	–	–	–
O=C(c1cc2cc(Br)ccc2[nH]1)N1CCc2ccccc21	-38	–	–	–	–
CCOC(=O)C1CCN(c2nc(-c3ccc(Br)cc3)cs2)CC1	·	·	·	–	·
COC(=O)c1ccc(CNC(=O)COC(=O)/C=C/c2ccc(O)c(OC)c2)cc1	–	–	18µM	–	?
COC(=O)c1ccc(Cn2cc(C(F)(F)F)cc([N+](=O)[O-])c2=O)cc1	–	-95	–	–	–
O=[N+]([O-])c1cc(Cl)ccc1N1CCN(c2cccc(C(F)(F)F)c2)CC1	–	–	–	–	–
O=c1c([N+](=O)[O-])cc(C(F)(F)F)cn1Cc1c(Cl)cccc1Cl	–	-91	–	–	–
COC(=O)c1ccc(Cn2cc(C(F)(F)F)ccc2=O)cc1	–	–	–	–	–
CCC(C)c1ccc(NC(=S)N2CCN(C(=O)C3CCCO3)CC2)cc1 (configuration not stated)	-74	–	–	–	–
COc1ccc(-c2nnc3ccc(SC(C)C)nn23)cc1OC	·	–	·	·	·
COc1cc2c(cc1OC)-c1cc(OCCN3CCOCC3)nc(=O)n1CC2	–	–	8.2µM	–	?
CCNc1cc2n(c(=O)n1)CCc1cc(OC)c(OC)cc1-2	–	–	–	–	–
CCCNC(=O)C(Cc1ccccc1C)NC(=O)c1ccc(C#N)cc1 (configuration not stated)	-38	–	–	–	–
CCCNC(=O)C(Cc1ccccc1F)NC(=O)c1ccc(C#N)cc1 (configuration not stated)	–	–	–	–	–
COc1ccc([C@]23Cc4cc(C#N)ccc4C(O2)c2c(cc(-c4ccccc4)oc2=O)O3)cc1	·	·	·	–[15.4 µM]	·
COc1ccc(-c2nc(N3CCN(S(=O)(=O)c4ccc(F)cc4)CC3)c3ccccc3n2)cc1	·	–	·	·	·
COc1ccc(Cc2nc3ccc(C(=O)N(C)Cc4cc(C)[nH]n4)cc3o2)cc1OC	-70	–	–	–	–
CCS(=O)(=O)N1CCC(C(=O)Nc2cccc(F)c2)CC1	-54	–	–	–	–
Cn1cc(/C=C(\C#N)C(=O)Nc2ccccc2O)c2ccccc21	–	–	18µM[inhibitor]	–	?
CCCCNc1c(-c2ccc(SC3CCCCC3)c(OC)c2)nc2ccc(C)cn12	–	–	7.3µM	–	?
COc1ccc(-c2cc(-c3nc4ccccn4c3NCc3ccccc3)ccc2OC)cc1	–	–	26µM	–	?
CCC(C)Sc1cc(-c2nc3ccc(C)cn3c2NCc2ccccc2)ccc1OC (configuration not stated)	–	–	15µM	·	?
c1ccc(CNc2ncnc3c2ncn3Cc2ccccc2)cc1	·	–	·	·	·
Cc1cc2[nH]c3c(c[n+](C)c4ccccc34)c2cc1C	–	-84	–	–	?
CCCCc1nnc(NC(=O)Cn2cnc3ccccc3c2=O)s1	–	–	–	–	–
CCc1nnc(NC(=O)CCn2cnc3ccccc3c2=O)s1	-31	–	–	–	–
Cn1c(=O)oc2cc(S(=O)(=O)CCC(=O)NCCc3ccccc3)ccc21	-65	–	–	–	–
CCCN1CNc2c(c(=O)[nH]c(=S)n2CCc2ccc(Cl)cc2Cl)C1	·	–	·	·	·

Screening data (PubChem)
